Measured values: patent publication US12065409B2, “Analogs of 2-pralidoxime as antidotes against organophosphorus nerve agents” (dated 2024)
Like-named read-outs stand apart in the source and are kept apart here.

Protein sequences, listed by entry. Tags and fused reporters are not part of them. Residues count along the entry.
UniProt O42275, 24-633 limits assumed: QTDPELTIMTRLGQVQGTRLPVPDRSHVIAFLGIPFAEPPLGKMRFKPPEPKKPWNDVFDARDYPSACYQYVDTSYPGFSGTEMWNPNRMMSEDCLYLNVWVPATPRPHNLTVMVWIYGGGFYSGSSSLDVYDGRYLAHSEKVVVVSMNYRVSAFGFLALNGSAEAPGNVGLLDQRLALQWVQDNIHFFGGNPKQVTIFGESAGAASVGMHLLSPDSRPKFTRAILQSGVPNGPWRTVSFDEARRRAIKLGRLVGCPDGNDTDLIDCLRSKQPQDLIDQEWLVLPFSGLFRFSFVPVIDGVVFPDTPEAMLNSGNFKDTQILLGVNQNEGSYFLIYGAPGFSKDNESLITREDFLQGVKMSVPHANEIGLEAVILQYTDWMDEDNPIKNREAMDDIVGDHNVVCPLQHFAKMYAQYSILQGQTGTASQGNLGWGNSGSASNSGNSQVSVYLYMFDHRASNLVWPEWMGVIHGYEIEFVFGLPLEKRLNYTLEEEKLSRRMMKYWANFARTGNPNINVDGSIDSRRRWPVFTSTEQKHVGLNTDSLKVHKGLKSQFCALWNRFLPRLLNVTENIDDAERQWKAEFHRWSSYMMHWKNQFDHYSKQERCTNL
UniProt P22303, 32-614 limits assumed: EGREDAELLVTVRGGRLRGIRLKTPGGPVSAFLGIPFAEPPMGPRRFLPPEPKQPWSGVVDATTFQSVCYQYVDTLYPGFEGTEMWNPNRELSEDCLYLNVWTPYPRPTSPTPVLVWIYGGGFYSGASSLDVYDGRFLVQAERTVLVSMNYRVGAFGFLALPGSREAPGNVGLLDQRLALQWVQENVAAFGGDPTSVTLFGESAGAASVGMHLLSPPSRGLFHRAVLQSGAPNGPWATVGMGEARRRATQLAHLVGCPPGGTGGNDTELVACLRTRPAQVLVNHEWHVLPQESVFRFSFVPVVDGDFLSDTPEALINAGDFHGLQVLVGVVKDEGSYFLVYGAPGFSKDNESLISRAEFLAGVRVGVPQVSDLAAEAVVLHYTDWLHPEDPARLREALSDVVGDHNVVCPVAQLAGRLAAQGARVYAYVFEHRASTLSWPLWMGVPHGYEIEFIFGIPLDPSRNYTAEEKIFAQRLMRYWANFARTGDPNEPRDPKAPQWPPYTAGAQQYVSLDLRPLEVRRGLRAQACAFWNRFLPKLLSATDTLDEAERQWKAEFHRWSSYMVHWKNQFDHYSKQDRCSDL

What was measured:
[1] = biological target: Electrophorus electricus (electric eel) AChE (Electrophorus electricus, UniProt O42275); assay: Ellman's assay: reactivation of paraoxon-inhibited electric eel AChE; settings: read-out: EC50, AChE activity (reactivation), 10 U/mL eel AChE, mean±SEM
human AChE = human AChE (Homo sapiens, UniProt P22303); assay: Ellman's assay: reactivation of paraoxon-ethyl-inhibited human AChE; settings: read-out: EC50, normalized AChE activity (reactivation); 10 U/mL human AChE, 20 μM paraoxon-ethyl, 0-600 μM reactivator, pH 7.4; mean±SEM
[2] = 20 μM paraoxon-ethyl, at 20 minutes, pH 7.4
[3] = 20 μM paraoxon-methyl, at 20 minutes, pH 7.4
[4] = 20 μM paraoxon-ethyl, at 25 minutes, 1:1:88:10 isopropanol:DMSO:phosphate:Tris pH 7.4

| Structure (SMILES) | EC50 [1, 2] [µM] | EC50 [1, 3] [µM] | EC50 [1, 4] [µM] | further results |
| --- | --- | --- | --- | --- |
| Cc1cc[n+](C)c(/C=N/O)c1 | 18 | 18 | – | – |
| C[n+]1ccc(C#Cc2ccccc2)cc1/C=N/O | – | – | 18 | – |
| Cc1cccc(/C=N/O)[n+]1C | 18 | 24 | – | – |
| C[n+]1ccc(CCc2ccccc2)cc1/C=N/O | – | – | 18 | – |
| C[n+]1ccc(C(F)(F)F)cc1/C=N/O | – | – | 18 | – |
| C[n+]1ccc(-c2ccccc2)cc1/C=N/O | – | – | – | EC50 (human AChE): 69 µM |
